From ChEMBL document CHEMBL6182893, “Discovery of non-electrophilic TRPA1 channel agonists with anti-nociceptive effects via rapid current desensitization” (Eur J Med Chem, 2025)

Amino acid sequences for entries named in this document (tags omitted).
UniProt Q7Z2W7, whole entry, looked up: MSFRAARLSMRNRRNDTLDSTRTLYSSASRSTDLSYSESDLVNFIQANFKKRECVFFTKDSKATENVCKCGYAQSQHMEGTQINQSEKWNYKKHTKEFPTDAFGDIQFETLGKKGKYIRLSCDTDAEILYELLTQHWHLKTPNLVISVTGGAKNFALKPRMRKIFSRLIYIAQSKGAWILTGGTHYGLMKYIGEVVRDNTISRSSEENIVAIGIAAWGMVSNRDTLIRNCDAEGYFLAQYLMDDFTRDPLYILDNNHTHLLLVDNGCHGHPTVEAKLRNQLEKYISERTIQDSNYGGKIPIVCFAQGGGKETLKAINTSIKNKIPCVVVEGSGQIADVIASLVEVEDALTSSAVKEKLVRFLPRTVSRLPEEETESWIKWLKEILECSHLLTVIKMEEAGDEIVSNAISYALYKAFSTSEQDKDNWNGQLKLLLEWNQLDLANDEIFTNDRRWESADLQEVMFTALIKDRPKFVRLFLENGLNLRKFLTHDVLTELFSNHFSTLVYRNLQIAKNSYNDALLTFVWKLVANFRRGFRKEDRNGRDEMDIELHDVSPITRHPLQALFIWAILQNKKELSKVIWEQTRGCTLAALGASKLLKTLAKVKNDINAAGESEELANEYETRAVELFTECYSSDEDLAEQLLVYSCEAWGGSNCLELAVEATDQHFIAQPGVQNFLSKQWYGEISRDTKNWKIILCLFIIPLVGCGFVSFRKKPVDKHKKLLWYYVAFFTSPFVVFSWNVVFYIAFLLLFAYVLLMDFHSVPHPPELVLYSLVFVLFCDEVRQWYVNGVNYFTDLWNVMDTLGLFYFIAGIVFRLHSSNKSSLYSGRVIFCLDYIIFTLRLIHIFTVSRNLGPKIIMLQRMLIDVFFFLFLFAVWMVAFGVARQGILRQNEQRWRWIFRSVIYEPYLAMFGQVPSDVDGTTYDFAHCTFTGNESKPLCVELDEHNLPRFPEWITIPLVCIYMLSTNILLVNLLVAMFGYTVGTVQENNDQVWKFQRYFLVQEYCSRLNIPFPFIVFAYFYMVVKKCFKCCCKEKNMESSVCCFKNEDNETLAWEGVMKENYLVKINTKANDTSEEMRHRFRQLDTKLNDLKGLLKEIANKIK

How the values were obtained:
Format in all cases: cell-based
[1] = biological target: T1, Transient receptor potential cation channel subfamily V member 2 (Mus musculus) (UniProt Q9WTR1); test: Agonist activity at mouse TRPV2 expressed in HEK293T cells at 30 uM by whole cell patch clamp recordings
T1 sequence (whole entry): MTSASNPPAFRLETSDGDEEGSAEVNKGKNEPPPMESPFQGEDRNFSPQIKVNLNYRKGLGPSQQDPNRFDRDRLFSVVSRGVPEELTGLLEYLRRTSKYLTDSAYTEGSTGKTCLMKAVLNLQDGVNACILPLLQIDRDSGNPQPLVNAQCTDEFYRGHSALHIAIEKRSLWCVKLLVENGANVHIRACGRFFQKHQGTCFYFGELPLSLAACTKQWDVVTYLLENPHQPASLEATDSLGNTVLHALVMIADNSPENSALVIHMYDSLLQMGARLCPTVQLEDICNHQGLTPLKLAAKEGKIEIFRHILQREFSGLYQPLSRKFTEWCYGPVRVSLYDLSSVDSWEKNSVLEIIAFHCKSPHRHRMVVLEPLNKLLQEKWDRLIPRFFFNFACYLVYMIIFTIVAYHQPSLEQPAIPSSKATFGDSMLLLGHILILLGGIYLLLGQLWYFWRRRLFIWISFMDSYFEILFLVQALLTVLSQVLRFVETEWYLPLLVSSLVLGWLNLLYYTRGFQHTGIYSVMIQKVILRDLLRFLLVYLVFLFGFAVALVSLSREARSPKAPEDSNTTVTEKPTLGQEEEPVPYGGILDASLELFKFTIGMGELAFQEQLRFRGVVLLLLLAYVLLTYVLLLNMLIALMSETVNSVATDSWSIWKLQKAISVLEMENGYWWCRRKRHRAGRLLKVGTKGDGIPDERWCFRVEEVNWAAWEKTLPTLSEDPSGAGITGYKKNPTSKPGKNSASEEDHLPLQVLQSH

[2] = biological target: Transient receptor potential cation channel subfamily M member 8 (Homo sapiens) (UniProt Q7Z2W7); test: Agonist activity at human TRPM8 expressed in HEK293T cells at 30 uM by whole cell patch clamp recordings
[3] = biological target: T2, Short transient receptor potential channel 6 (Homo sapiens) (UniProt Q9Y210); test: Agonist activity at human TRPC6 expressed in HEK293T cells at 30 uM by whole cell patch clamp recordings
T2 sequence (whole entry): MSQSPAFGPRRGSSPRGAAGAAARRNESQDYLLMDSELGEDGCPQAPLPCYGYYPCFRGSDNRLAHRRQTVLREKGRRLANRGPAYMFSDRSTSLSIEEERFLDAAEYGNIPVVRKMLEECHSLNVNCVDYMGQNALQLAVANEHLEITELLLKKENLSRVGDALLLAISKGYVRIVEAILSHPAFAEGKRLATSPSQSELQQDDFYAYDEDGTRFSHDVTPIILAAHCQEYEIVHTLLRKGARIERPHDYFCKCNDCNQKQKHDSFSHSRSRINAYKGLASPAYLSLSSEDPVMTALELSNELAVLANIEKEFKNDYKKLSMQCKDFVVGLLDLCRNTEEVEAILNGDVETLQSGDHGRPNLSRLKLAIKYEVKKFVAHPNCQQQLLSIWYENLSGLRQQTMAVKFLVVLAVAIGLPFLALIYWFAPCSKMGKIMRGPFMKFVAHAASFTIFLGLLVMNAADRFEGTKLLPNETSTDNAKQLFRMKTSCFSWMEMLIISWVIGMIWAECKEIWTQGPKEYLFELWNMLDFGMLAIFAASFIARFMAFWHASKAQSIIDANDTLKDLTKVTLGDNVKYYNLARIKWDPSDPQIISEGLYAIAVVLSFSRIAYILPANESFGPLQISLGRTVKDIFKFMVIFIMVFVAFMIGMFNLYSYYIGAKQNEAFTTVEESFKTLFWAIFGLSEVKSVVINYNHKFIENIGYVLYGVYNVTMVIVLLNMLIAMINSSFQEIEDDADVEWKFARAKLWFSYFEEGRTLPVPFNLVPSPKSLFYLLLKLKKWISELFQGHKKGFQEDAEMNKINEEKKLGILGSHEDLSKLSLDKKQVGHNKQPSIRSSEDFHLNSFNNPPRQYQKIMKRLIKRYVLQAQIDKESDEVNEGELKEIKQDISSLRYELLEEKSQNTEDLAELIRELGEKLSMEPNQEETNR

[4] = biological target: T3, Transient receptor potential cation channel subfamily V member 3 (Homo sapiens) (UniProt Q8NET8); test: Agonist activity at human TRPV3 expressed in HEK293T cells at 30 uM by whole cell patch clamp recordings
T3 sequence (whole entry): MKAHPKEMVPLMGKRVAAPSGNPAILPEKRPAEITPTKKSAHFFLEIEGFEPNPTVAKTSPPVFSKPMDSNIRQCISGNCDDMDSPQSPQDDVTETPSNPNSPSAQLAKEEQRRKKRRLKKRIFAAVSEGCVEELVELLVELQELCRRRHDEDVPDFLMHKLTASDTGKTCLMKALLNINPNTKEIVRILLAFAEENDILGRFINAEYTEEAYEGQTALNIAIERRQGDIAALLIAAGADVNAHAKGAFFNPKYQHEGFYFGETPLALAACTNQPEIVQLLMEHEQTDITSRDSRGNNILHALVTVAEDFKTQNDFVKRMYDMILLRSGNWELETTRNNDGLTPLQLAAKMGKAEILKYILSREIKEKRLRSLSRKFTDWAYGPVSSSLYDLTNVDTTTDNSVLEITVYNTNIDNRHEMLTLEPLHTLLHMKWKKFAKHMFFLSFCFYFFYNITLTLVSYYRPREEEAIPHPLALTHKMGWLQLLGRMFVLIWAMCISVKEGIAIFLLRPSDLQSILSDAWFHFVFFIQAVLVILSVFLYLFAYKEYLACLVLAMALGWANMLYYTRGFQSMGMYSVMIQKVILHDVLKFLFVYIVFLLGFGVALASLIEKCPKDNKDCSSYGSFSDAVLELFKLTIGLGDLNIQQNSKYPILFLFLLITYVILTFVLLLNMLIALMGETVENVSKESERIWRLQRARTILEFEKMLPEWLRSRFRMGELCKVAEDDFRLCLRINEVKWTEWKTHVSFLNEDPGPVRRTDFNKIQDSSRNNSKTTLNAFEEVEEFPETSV

Measured: Activity

CCc1ccc(-c2csc(NCCCOC)n2)cc1
inactive: [1] | [2] | [3] | [4]

The source made the active and inactive calls.
